# Assay results: PubChem BioAssay AID624418 (National Center for Advancing Translational Sciences (NCATS), 2012)
# The list shows a part of the results, in another mix than the full data. Records with an inconclusive call do not appear. Calls of active or inactive are those of the source. Calls come from the whole dose curve; as a rule, active = well fitted inhibition curve with a large enough effect; inconclusive = small, poorly fitted or top-dose-only effect, or another doubt; inactive = no such curve, though single readings can be large or run the other way.
# Test: qHTS of GLP-1 Receptor Inverse Agonists: Cytotox Screen;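 note: loss of luciferase light is scored as toxicity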
# Conditions: HEK293 cAMP-luciferase reporter cells, luminescence, 24 h; series mostly up to 38.3 µM; activity change, negative = inhibition: at the top concentration
# From the text: The overall goal of this project was to develop a novel assay for discovering small molecule ligands for class B1 G protein-coupled receptors (GPCRs). Very few agonists (or inverse agonists) with generally weak activity for this entire group of physiologically important receptors are known to date. To establish proof-of-principle that this critical bottleneck can be overcome with a suitable screening approach, our studies focused on the class B1 receptor for glucagon-like peptide-1 (GLP-1R), a potential therapeutic target for diabetes and neurodegenerative disease.
# The assay was developed using a cell-based functional readout. Toward this goal, stably transfected HEK293 cell clones were established that co-express (i) a cAMP-responsive luciferase reporter gene, and (ii) constitutively active GLP-1R that upon ligand interaction inhibit (inverse agonists) the luciferase activity. In addition, two control cell lines were developed: (i) one that express only the cAMP-responsive reporter gene to enable initial exclusion of GLP-1R independent effects of candidate probes; and (ii) one with the reported gene cloned with another constitutively active orphan receptor GPR119 to enable exclusion of GLP-1R independent inhibitor effects of candidate inverse agonists.
# To that end, this assay was optimized for 1536-well format and screened against the MLSMR. Then the same collection was run in this cytotoxicity assay where inhibition was the undesired outcome.
# NIH Molecular Libraries Probe Production Network [MLPCN]
# NIH Chemical Genomics Center [NCGC]
# PI Name: Martin Beinborn, Tufts Medical Center
# Six ul of cell suspension (200 cells/uL in DMEM + 10% Nu serum + 1% pen-strep) is dispensed in a white solid 1536-well plate. The plates are incubated for 12 hours at 37 deg C at 5% CO2 followed by addition of 23 nL compounds. After 24 hr incubation at 37 deg C and 5% CO2, 3 uL of luciferase assay detection reagent is added. A luminescence read is obtained on the PerkinElmer Viewlux after 12 min incubation at room temperature.
# % is set by controls: 0 for no effect and ±100 for the full control effect.
row,SMILES,"activity change, negative = inhibition"
1,O=C(O)C(=O)c1ccc(N(CCCl)CCCl)cc1,inactive: -22%
2,CCOC(=O)c1ccc(NC(=O)C(C)(CCl)SC)cc1 (stereo unspecified),inactive: 4.77%
3,O=C(OC1CN2CCC1CC2)c1cccc([N+](=O)[O-])c1 (stereo unspecified),inactive: -1.78%
4,CCC(C)N(CC(C)C)C(=S)SC(NC(C)=O)C(Cl)(Cl)Cl (stereo unspecified),inactive: -11.6%
5,Cc1cc(=O)[nH]c(N[N+](=O)[O-])n1,inactive: -9.68%
6,O=C(OC1CN2CCC1CC2)C12CC3CC(CC(C3)C1)C2 (stereo unspecified),inactive: -23.2%
7,Cc1c2c(nc3ccccc13)SC(C(Cl)Cl)C2 (stereo unspecified),inactive: -15.4%
8,COc1cc(I)ccc1[As](=O)(O)O,inactive: -0.105%
9,COc1ccc2nc(NP(=O)(c3ccccc3)c3ccccc3)sc2c1,inactive: -9.63%
10,O=P1(N(CCCl)CCCl)OCCCN1CCCl (stereo unspecified),inactive: -1.29%
11,O=P1(N(CCCl)CCCl)Nc2ccccc2N1,inactive: -2.3%
12,COc1ccc(N/C(=N/P(=O)(N2CCOCC2)N2CCOCC2)N2CCOCC2)cc1,inactive: -3.64% [at 7.66 µM]
13,O=[N+]([O-])c1cc(Oc2ccc([N+](=O)[O-])cc2C(F)(F)F)cc([N+](=O)[O-])c1,inactive: -4.28%
14,COc1cc(C(=O)NCC2(N3CCOCC3)CCCCC2)ccc1OCC(C)C,inactive: 4.62%
15,O=[As](O)(c1ccc(O)cc1)c1ccccc1O,inactive: -1.12%
16,C[As](=O)(O)c1cccc(C(=O)O)c1,inactive: 13%
17,Cc1ccc2nc3c(c(C)c2c1)CC(C(Cl)Cl)S3 (stereo unspecified),inactive: -3.75%
18,Cc1ccc(OP(=O)(Nc2ccc([N+](=O)[O-])cn2)Oc2ccc(C)cc2)cc1,inactive: -3.3%
19,[N-]=[N+]=NC1CCCCC1NC(=O)c1cc([N+](=O)[O-])cc([N+](=O)[O-])c1 (stereo unspecified),inactive: -16.6%
20,CC(C)c1ccc(OP(=O)(Nc2ccccn2)Oc2ccccc2F)cc1 (stereo unspecified),inactive: 2.39%
21,COC(=O)C1(C)COP(=O)(N2CCCCCC2)OC1 (stereo unspecified),inactive: -6.76%

row,SMILES,"activity change, negative = inhibition"
1,ClCCSc1nnc(-c2cccnc2)o1,inactive: -8.61%
2,O=C(OC1CN2CCC1CC2)c1cccc2[nH]cnc12 (stereo unspecified),inactive: 23.3%
3,CCN(CC)C(=S)SC(NC=O)C(Cl)(Cl)Cl (stereo unspecified),inactive: 3.41%
4,CC(C)NC(=O)NP(=O)(Oc1ccccc1)Oc1ccccc1,inactive: 1.07%
5,CCCC1OP(N)(=O)OCC1CC (stereo unspecified),inactive: 3.84%
6,O=C(O)c1ccccc1[As](=O)(O)O,inactive: -3.31%
7,CC(=O)Nc1ccc([As](=O)(O)O)cc1,inactive: 1.1%
8,CN(C)P(=O)(N(C)C)n1c(Nc2ccccc2)nnc1-c1ccccc1,inactive: -6.79%
9,Cc1ccc(NP(=O)(Oc2ccccc2F)Oc2ccccc2F)nc1,inactive: -6.92%
10,CCOP(=O)(Nc1ccccc1)OCC,inactive: 0.14%
11,Cc1cc(SC(NC(=O)c2ccc(F)cc2)C(Cl)(Cl)Cl)ncn1 (stereo unspecified),inactive: 7.6%
12,CCN(N=Nc1nonc1N)c1nonc1N,inactive: -3.57%
13,Nc1cccc2ccc([As](=O)(O)O)cc12,inactive: -3.44%
14,NC(=O)c1cc([N+](=O)[O-])cc([N+](=O)[O-])c1N,inactive: -15.2%
15,Cc1ccc(N/C(=N/P(=O)(N2CCOCC2)N2CCOCC2)N2CCOCC2)cc1,inactive: -1.74%
16,Cc1ccc(OP(=O)(Nc2nccs2)Oc2ccc(C)cc2)cc1,inactive: -10.8%
17,COc1ccccc1OP(=O)(Nc1ccc(C)cn1)Oc1ccccc1OC,inactive: 23%
18,Clc1ccc(Cl)c(NC2=NCC(CBr)S2)c1 (stereo unspecified),inactive: -0.467%
19,CN1CCCC(OC(=O)C(c2ccccc2)c2ccccc2)C1 (stereo unspecified),inactive: -11.1%
20,CC(C)CC(=O)NC(Sc1ccc(Cl)cc1)C(Cl)(Cl)Cl (stereo unspecified),inactive: 23.6%
21,Nc1cc(N)c2nonc2c1[N+](=O)[O-],inactive: -27.2%

row,SMILES,"activity change, negative = inhibition"
1,O=C(NC(Sc1ccncn1)C(Cl)(Cl)Cl)c1ccccc1 (stereo unspecified),inactive: 0.146% [at 1.53 µM]
2,Oc1ccccc1CNc1ccccn1,inactive: 7.08%
3,O=[N+]([O-])C1C(O)C(O)C([N+](=O)[O-])C(O)C1O (stereo unspecified),inactive: 0.719%
4,COc1ccc(C2=NCC(CBr)S2)cc1 (stereo unspecified),inactive: 1.33%
5,CC(=O)N1C2C3N(C(C)=O)C1C1N(C(C)=O)C(C(N1C(C)=O)N3C(C)=O)N2C(C)=O,inactive: 2.82%
6,O=[N+]([O-])c1cccc2n[nH]nc12,inactive: 0.349%
7,O=[N+]([O-])c1cc([N+](=O)[O-])c(CCNc2ccccc2)c([N+](=O)[O-])c1,inactive: -20.7%
8,Cc1ccc(NP(=O)(Oc2ccccc2)Oc2ccccc2)nc1,inactive: -13.9%
9,Nc1ccc([As](=O)(O)c2ccc(N)cc2)cc1,inactive: 10.7%
10,CCN(/C(=N/P(=O)(N1CCOCC1)N1CCOCC1)N1CCOCC1)c1ccc(OC)cc1,inactive: 12.5%
11,CN(C)C(=O)OCCc1n(C)cc[n+]1C,inactive: -14.8%
12,CC(C)=N/N=C(\N)N[N+](=O)[O-],inactive: 5.9%
13,CC(C)c1nc(Nc2ccccc2)n(P(=O)(N(C)C)N(C)C)n1,inactive: -2.58%
14,c1cc(-c2nn[nH]n2)ccc1-c1nn[nH]n1,inactive: 0.922%
15,CC1CCN(C(=O)Oc2c(Cl)cc(Cl)c3cccnc23)CC1,inactive: -2.53%
16,O=P1(N(CCCl)CCCl)OCCCS1 (stereo unspecified),inactive: 1.78%
17,O=C(Nc1cc([As](=O)(O)O)ccc1O)c1ccccc1,inactive: -15.6%
18,CC(C)(C)C(=O)NC(Sc1ccncn1)C(Cl)(Cl)Cl (stereo unspecified),inactive: -7.03%
19,O=[N+]([O-])c1ncn(CCn2ncnc2[N+](=O)[O-])n1,inactive: 14.2%
